Earlier results on one molecule are cited in US7144890B2, “Spiro-pentacyclic compounds” (Hoffman-La Roche Inc., priority 2004, dated 2006).

The chains behind the UniProt entries cited, without tags or fusion partners.
UniProt P47746, whole entry: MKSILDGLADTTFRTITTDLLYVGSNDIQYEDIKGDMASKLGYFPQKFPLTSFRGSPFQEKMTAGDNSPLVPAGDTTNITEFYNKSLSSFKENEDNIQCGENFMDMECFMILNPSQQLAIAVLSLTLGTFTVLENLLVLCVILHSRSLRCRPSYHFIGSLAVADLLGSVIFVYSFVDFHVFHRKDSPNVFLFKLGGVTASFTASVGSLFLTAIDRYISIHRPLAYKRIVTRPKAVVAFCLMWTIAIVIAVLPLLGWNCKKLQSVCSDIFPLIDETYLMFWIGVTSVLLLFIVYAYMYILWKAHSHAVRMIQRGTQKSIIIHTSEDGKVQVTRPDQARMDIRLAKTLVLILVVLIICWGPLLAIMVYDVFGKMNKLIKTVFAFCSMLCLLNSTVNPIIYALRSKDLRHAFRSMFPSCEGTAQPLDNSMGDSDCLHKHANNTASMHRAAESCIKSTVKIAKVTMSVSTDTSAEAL

This data set has as its target CB1 receptor (Mus musculus, UniProt P47746). To be noted: wild-type versus CB1 receptor knockout mice, after temporary food restriction; cited from earlier work.

Consider `Cc1c(C(=O)NN2CCCCC2)nn(-c2ccc(Cl)cc2Cl)c1-c1ccc(Cl)cc1` [SR 141716], for which the food intake result was “reduces food intake in wild-type but not knockout mice”.
